The list shows a part of the results, in another mix than the full data. Calls of active or inactive are those of the source.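 The calls were made as follows: active = inhibition above about 35% when tested at 20 µM (limit read from the data); inactive = the rest.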
The compounds below were run against Hexokinase HKDC1 (Homo sapiens) (UniProt Q2TB90) (assay: HKDC1 hexokinase inhibitors, primary screen, biochemical, fluorescence, uHTS (AID 493160;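 also: plate controls were DMSO wells with enzyme for no effect and DMSO wells lacking enzyme for full effect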)). Details: recombinant HKDC1, G6PDH/diaphorase resazurin coupled fluorescence; at 20 µM; stronger effect = higher value.
How it was run: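 test system = in-house recombinant HK5 (HKDC1) enzyme | amount = HKDC1 at 5 µg/mL | control set = DMSO-enzyme wells negative, buffer-substituted wells positive | compound = one dose of 20 µM, 1% DMSO | schedule = reaction time 90 min, room temperature, protected from light | technique = resorufin fluorescence at 613 nm | reagent = glucose with 1 mM ATP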

Chains of the proteins cited; added tags and fusions are not shown.
UniProt Q2TB90, whole entry: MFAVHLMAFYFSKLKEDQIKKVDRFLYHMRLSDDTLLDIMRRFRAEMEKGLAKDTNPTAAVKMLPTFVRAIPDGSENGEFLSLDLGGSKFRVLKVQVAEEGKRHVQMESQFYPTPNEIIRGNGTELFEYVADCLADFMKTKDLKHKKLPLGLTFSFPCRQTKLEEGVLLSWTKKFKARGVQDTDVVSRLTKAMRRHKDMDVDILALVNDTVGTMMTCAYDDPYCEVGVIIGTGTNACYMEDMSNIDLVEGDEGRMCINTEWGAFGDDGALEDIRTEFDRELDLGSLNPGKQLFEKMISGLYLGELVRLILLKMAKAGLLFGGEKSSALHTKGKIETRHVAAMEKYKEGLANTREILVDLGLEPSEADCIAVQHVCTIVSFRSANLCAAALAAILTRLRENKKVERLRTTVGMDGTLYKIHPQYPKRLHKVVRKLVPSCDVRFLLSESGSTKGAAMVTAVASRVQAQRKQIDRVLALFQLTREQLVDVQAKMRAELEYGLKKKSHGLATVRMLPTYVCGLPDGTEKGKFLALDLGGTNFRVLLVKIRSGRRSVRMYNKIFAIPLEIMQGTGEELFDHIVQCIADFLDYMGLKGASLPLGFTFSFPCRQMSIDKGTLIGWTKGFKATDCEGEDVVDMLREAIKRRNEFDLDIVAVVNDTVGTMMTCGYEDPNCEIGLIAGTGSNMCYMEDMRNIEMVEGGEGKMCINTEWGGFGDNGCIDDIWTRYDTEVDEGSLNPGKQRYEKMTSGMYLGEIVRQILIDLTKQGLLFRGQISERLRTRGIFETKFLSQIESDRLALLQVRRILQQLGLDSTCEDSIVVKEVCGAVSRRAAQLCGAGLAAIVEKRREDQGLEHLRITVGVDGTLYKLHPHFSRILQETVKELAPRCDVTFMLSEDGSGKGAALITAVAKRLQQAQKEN

| SMILES | inhibition |
| --- | --- |
| CC(C)(C)OC(=O)N1CCC(N(C(=O)c2ccccc2)c2ccc(F)cc2)CC1 | inactive: 1.88% |
| COc1ccc(C(=O)NCC2(N3CCCCC3)CCCCC2)c(OC)c1OC | inactive: -5.46% |
| COc1ccc(C(=O)NCC2(N3CCCCC3)CCCCC2)cc1 | inactive: -5.62% |
| O=C(NCC1(N2CCCCC2)CCCCC1)c1cccs1 | inactive: -0.84% |
| O=C(NCC1(N2CCCCC2)CCCCC1)c1ccc(=O)[nH]c1 | inactive: 0.86% |
| Cc1cccc(NC2(C#N)CCN(Cc3ccccc3)CC2)c1 | inactive: -2.84% |
| CSc1ccccc1C(=O)NCC1(N2CCCCC2)CCCCC1 | inactive: -6.66% |
| Cc1cc(C)cc(N(C(=O)c2ccccc2)C2CCN(C(=O)OC(C)(C)C)CC2)c1 | inactive: -0.51% |
| O=C(NCC1(N2CCCCC2)CCCCC1)c1ccc(Cl)nc1 | inactive: -4.32% |
| O=C(NCC1(N2CCOCC2)CCCCC1)c1cc2ccccc2o1 | inactive: -1.07% |
| COc1ccc(Cl)cc1C(=O)NCC1(N2CCOCC2)CCCCC1 | inactive: -0.1% |
| O=C(OC1CN2CCC1CC2)C1c2ccccc2Oc2ccccc21 (stereo not given) | inactive: 2.81% |
| O=C(NCC1(N2CCCCC2)CCCCC1)c1ccc(Cl)s1 | inactive: -3.51% |
| N#CC1(Nc2ccccc2)CCN(Cc2ccccc2)CC1 | inactive: -1.26% |
| CCOC(=O)N1CCC(Nc2ccc(OC)cc2)CC1 | inactive: -7.66% |
| O=C1CCN(Cc2ccccc2)CC1 | inactive: -9.85% |
| CCOc1ccc(C)cc1CN(CCCl)CCCl | inactive: 9.34% |
| CCOC(=O)N1CCC(Nc2ccc(F)cc2)CC1 | inactive: 8.43% |
| COc1ccc(NC2CCN(CCc3ccccc3)CC2)c(OC)c1 | inactive: 11.6% |
| O=C(NCC1(N2CCCCC2)CCCCC1)c1ccc(F)cc1 | inactive: -5.34% |
| CCCCOc1ccc(C(=O)NCC2(N3CCOCC3)CCCCC2)cc1 | inactive: -2.63% |
| O=P1(N(CCCl)CCCl)SCCCS1 | inactive: -5.98% |
| COc1cc(C(=O)NCC2(N(C)C)CCCCC2)ccc1OC(F)F | inactive: -4.78% |
| CCOC(=O)N1CCC(Nc2cccc(C)c2)CC1 | inactive: 9.57% |
| O=C(NCC1(N2CCCCC2)CCCCC1)c1ccc(OC(F)F)cc1 | inactive: -6.51% |

| SMILES | inhibition |
| --- | --- |
| N#CC1(Nc2ccccc2)CCN(CCc2ccccc2)CC1 | inactive: -5.33% |
| CCN1CCC(Nc2ccc(Cl)cc2)CC1 | inactive: 7.19% |
| O=C(NCC1(N2CCCCC2)CCCCC1)c1cccc([N+](=O)[O-])c1 | inactive: -12.1% |
| CSc1ccc(C(=O)NCC2(N3CCOCC3)CCCCC2)cc1 | inactive: -2.78% |
| O=C(NCC1(N2CCCCC2)CCCCC1)c1cccc(C(F)(F)F)c1 | inactive: -2.76% |
| O=C(NCC1(N2CCOCC2)CCCCC1)c1cc(=O)[nH]c2ccccc12 | inactive: -6.02% |
| COc1cc(C(=O)NCC2(N3CCCCC3)CCCCC2)ccc1OC(F)F | inactive: -3.79% |
| CC(C)c1ccc(C(=O)NCC2(N3CCOCC3)CCCCC2)cc1 | inactive: -2.46% |
| COc1ccc(NC2CCN(C(=O)OC(C)(C)C)CC2)cc1 | inactive: -4.07% |
| CN1CCN(CCOC(=O)C(O)(c2ccccc2)c2ccccc2)CC1 | inactive: -8.26% |
| CC(C)c1ccc(NC2CCN(C(=O)OC(C)(C)C)CC2)cc1 | inactive: 4.79% |
| CN(C)c1cccc(C(=O)NCC2(N3CCCCC3)CCCCC2)c1 | inactive: -7.81% |
| COc1ccc(CN(CCCl)CCCl)cc1Cl | inactive: 10.7% |
| O=C(NCC1(N2CCOCC2)CCCCC1)c1cc(F)c(F)cc1Cl | inactive: -3.11% |
| COc1cc(OC)c(C(=O)NCC2(N(C)C)CCCCC2)cc1OC | inactive: 1.09% |
| O=C(NCC1(N2CCCCC2)CCCCC1)c1cncc(Br)c1 | inactive: -0.01% |
| CN1CCC(Nc2cccc(F)c2)CC1 | inactive: -2.65% |
| CCCOc1ccc(C(=O)NCC2(N(C)C)CCCCC2)cc1OC | inactive: -1.75% |
| COc1cc(C(=O)NCC2(N3CCOCC3)CCCCC2)cc(OC)c1C | inactive: 0.94% |
| O=C(NCC1(N2CCOCC2)CCCCC1)c1cc(Br)ccc1Cl | inactive: -1.76% |
| COc1ccc(C(=O)NCC2(N3CCOCC3)CCCCC2)cc1OC | inactive: -6.82% |
| CCOC(=O)N1CCC(Nc2ccc(C)cc2)CC1 | inactive: -0.19% |
| N/C(=N\O)c1c(N)no[n+]1[O-] | inactive: -0.67% |
| O=C(OC1CN2CCC1CC2)C1c2ccccc2C=Cc2ccccc21 (stereo not given) | inactive: -1.12% |
| CCc1cc(C(=O)NCC2(N3CCCCC3)CCCCC2)sc1C | inactive: -3.65% |

| SMILES | inhibition |
| --- | --- |
| N#Cc1ccc(C(=O)NCC2(N3CCCCC3)CCCCC2)cc1 | inactive: -1.71% |
| CC(C)(C)OC(=O)N1CCC(N(C(=O)c2ccccc2)c2ccc(Cl)cc2)CC1 | inactive: 2.03% |
| CN(C)C1(CNC(=O)c2cccc(C#N)c2)CCCCC1 | inactive: 5.18% |
| Cc1cc(N(CCCl)CCCl)ccc1C=O | inactive: 0.36% |
| CCCN1CCC(Nc2cc(OC)cc(OC)c2)CC1 | inactive: 12.1% |
| c1ccc(CN2CCC(Nc3ccccc3)CC2)cc1 | inactive: -0.54% |
| CC(=O)N(c1ccccc1)C1CCNCC1 | inactive: -6.87% |
| COc1cc(OC)cc(C(=O)NCC2(N3CCCCC3)CCCCC2)c1 | inactive: -6.32% |
| Fc1ccccc1NC1CCN(Cc2ccccc2)CC1 | inactive: 12.9% |
| Cc1ccc(C(=O)NCC2(N3CCCCC3)CCCCC2)o1 | inactive: -1.66% |
| Cc1ccc(NC2(C#N)CCN(Cc3ccccc3)CC2)cc1 | inactive: 0.88% |
| CCN1CCC(Nc2cccc(F)c2)CC1 | inactive: 10.7% |
| Cc1ccccc1NC1(C#N)CCN(Cc2ccccc2)CC1 | inactive: -5.4% |
| Cn1c(=O)[nH]cc(N(CCCl)CCCl)c1=O | inactive: -3.67% |
| CN(C)c1ccc(C(=O)NCC2(N3CCCCC3)CCCCC2)cc1 | inactive: 0.7% |
| O=C(NCC1(N2CCCCC2)CCCCC1)c1ccco1 | inactive: -7.58% |
| CN1CCC(Nc2ccc(F)c(Cl)c2)CC1 | inactive: 0.08% |
| CCOc1ncccc1C(=O)NCC1(N2CCOCC2)CCCCC1 | inactive: -4.52% |
| O=C(O)C1(Nc2ccccc2)CCN(Cc2ccccc2)CC1 | inactive: 4.04% |
| CC(C)(C)OC(=O)N1CCC(Nc2ccccc2)CC1 | inactive: -12.5% |
| CCCOc1ccc(C(=O)NCC2(N(C)C)CCCCC2)cc1 | inactive: -7.26% |
| COc1cccc(C(=O)N(c2cc(C)cc(C)c2)C2CCN(C(=O)OC(C)(C)C)CC2)c1 | inactive: 0.48% |
| COc1cc(OC)cc(C(=O)NCC2(N3CCOCC3)CCCCC2)c1 | inactive: 9.22% |
| CCC(CO)(C(=O)OC1CN2CCC1CC2)c1ccccc1 (stereo not given) | inactive: -11.3% |
| CN1CCC(Nc2ccc(Cl)cc2)CC1 | inactive: -4.52% |
